Results published in patent US20150376225A1, “NOVEL COMPOUNDS OF 11BETA-HYDROXY-STEROIDS FOR USE IN MITOCHONDRIA BIOGENESIS AND DISEASES ASSOCIATED WITH MITOCHONDRIAL DYSFUNCTION OR DEPLETION” (SPHAERA PHARMA PVTD. LTD., priority 2013, published 2015).

System: AMPK
Test: AMPK activation, cell based ELISA in Hep G2 cells
Experimental: AMPK Activation Protocol:
AMPK activation potential of the compounds was evaluated using cell based ELISA.
Hepatoma (Hep G2) liver cells were maintained in a T 75 culture flask-containing 25 mM DMEM+10% fetal calf serum. The cells were maintained in a T 75 culture flask-containing medium (DMEM+10% fetal calf serum). On reaching a confluence of 70 to 80%, the cells were seeded in a 96 well plate at a density of 40,000 cells per well in 25 mM DMEM+10% FCS medium. The plates were then incubated at 37° C. with 5% CO2 for 24 hours. […] The cells were incubated with 1:1000 dilution primary antibody (Phospho-AMPKα (Thr172) Rabbit mAb, CellSignaling in PBS-T containing 5% BSA at 4° C. overnight. The cells were then washed three times with PBS-T for 5 minutes and incubated with 1:1000 dilution secondary antibody (Anti-rabbit IgG, HRP-linked Antibody, Cell Signaling) in PBS-T with 1% BSA for 1 hour at RT. Cells were washed three times with PBS-T for 5 minutes The cells were incubated with 100 μl TMB substrate solution for 30 minutes and the reaction was stopped with 100 μl of 2N H2SO4. Then the plate was read at 450 nm using ELISA plate reader and absorbance recorded. % activity was calculated using DMSO control as 100%.

| Structure (SMILES) | % activation pAMPK at 1 nM [%] |
| --- | --- |
| CC(=O)[C@H]1CCC2C3CCC4CC(=O)CC[C@]4(C)C3[C@@H](O)C[C@@]21C (stereo partly drawn) [Compound 1026, (10S,11S,13S,17S)-17-acetyl-11-hydroxy-10,13-dimethylhexadecahydro-3H-cyclopenta[a]phenanthren-3-one] | 110 |
| CC(O)C1CCC2C3CCC4=CC(=O)CC[C@]4(C)C3[C@@H](O)C[C@]12C (stereo partly drawn) [Compound 1032, (10R,11S,13S)-11-hydroxy-17-(1-hydroxyethyl)-10,13-dimethyl-1,2,6,7,8,9,10,11,12,13,14,15,16,17-tetradecahydro-3H-cyclopenta[a]phenanthren-3-one] | 105 |
